Target: Adenosine receptor A1 (Rattus norvegicus, UniProt P25099)
Assay: Displacement of [3H]R-PIA from adenosine A1 receptor of Wistar rat forebrain

Sequences of proteins named here, by UniProt entry; tags and fusion partners are left off.
UniProt P25099, whole entry: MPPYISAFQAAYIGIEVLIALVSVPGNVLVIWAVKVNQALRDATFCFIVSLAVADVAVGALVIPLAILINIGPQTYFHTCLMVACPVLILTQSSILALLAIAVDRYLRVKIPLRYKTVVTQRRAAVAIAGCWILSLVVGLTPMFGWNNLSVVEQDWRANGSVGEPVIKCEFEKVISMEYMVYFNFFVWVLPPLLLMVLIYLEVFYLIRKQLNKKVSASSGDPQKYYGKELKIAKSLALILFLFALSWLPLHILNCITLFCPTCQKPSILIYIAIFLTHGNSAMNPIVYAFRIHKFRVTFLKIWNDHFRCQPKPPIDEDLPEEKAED

## CCNC(=O)[C@H]1O[C@@H](n2cnc3c(N)nc(NCCc4ccc(CCC(=O)O)cc4)nc32)[C@H](O)[C@@H]1O [CGS-21680]
  Ki: 9.9 µM

Reference: ChEMBL document CHEMBL1132368, “N-substituted adenosines as novel neuroprotective A(1) agonists with diminished hypotensive effects” (J Med Chem, 1999)
